This is a selection; strong and weak results do not stand in their true shares. Results filed as inconclusive are left out. Calls of active or inactive are those of the source. Unless noted, calls come from the whole dose curve; as a rule, active = well fitted curve in the direction sought with a large enough effect; inconclusive = small, poorly fitted or top-dose-only effect, or another doubt; inactive = no such curve, though single readings can be large; an effect the other way counts as inactive or inconclusive.
Assays:
[1] = qHTS Assay for Identification of Small Molecule Agonists for Hypoxia Response Element Signaling Pathway (AID 914; active = well fitted activation curve with a large enough effect in the signal ratio, with a control signal flat, not every such curve was filed as active; the % refers to the signal ratio; note: % of control where 0% means no effect); conditions: ME-180 (cervical carcinoma) HRE-bla reporter, beta-lactamase ratio, CoCl2, 17 h; hits give high values
[2] = Cellular Toxicity (caspase-3) H-4-II-E (AID 663); conditions: H-4-II-E rat hepatoma, scaled: DMSO 0%, 100 µM tamoxifen 100%; at 92.2 µM (top of the series);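 note: cells exposed to compound for 16 hr before readout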
Outline: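 Rat hepatoma H-4-II-E cells (1500/well) plated 5 hr, then exposed to compound titrations for 16 hr at 37 °C. Caspase-Glo 3/7 luminescence read after 20 min at RT; data normalized to DMSO and 100 uM tamoxifen, AC50 from Hill fits.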

By UniProt entry, the sequences of proteins in these tests, tags left out.
UniProt P08684, whole entry: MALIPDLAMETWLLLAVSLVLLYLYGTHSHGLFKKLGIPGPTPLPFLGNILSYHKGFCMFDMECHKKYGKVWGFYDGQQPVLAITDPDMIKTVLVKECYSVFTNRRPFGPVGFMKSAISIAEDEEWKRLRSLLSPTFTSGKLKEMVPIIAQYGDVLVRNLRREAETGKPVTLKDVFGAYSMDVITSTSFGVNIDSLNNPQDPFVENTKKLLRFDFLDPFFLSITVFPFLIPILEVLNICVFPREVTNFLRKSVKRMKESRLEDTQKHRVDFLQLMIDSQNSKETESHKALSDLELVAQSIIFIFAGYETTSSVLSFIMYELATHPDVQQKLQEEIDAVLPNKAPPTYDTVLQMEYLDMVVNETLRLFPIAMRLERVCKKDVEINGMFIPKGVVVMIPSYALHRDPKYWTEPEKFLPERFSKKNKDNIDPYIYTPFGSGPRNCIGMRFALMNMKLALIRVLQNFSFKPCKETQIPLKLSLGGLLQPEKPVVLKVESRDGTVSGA

[3] = Cellular Toxicity (caspase-3) Hek293 (AID 664); conditions: HEK293 caspase-3 activation, DMSO = 0%, 100 µM tamoxifen = 100%; at 92.2 µM (top of the series);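 note: cells exposed to compound for 16 h at 37 °C before readout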
Outline: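 Activation of caspase-3/7 is measured as increased luminescence from cleaved peptide-aminoluciferin substrate in HEK293 cells treated 16 hours at 37 °C. AC50 values come from Hill-equation fits of concentration-response data.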

[4] = Cellular Toxicity (caspase-3) N2a (AID 665); conditions: N2a cells, luminescence, normalized: DMSO 0%, 10 µM staurosporine 100%; at 92.2 µM (top of the series);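 note: compound exposure lasted 16 h at 37 °C before readout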
Outline: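 Plated mouse neuroblastoma N2a cells received titrated compounds for 16 h in complete medium. Caspase activity was then detected with a peptide-aminoluciferin luminescent reagent.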

[5] = Cellular Toxicity (caspase-3) NIH 3T3 (AID 666); conditions: NIH 3T3 caspase-3 activation, apoptosis/toxicity, 0% DMSO, 100% is 100 µM tamoxifen; at 92.2 µM (top of the series);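 note: caspase signal read after 16 h compound exposure; 0% = DMSO basal and 100% = 100 µM tamoxifen stimulation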
Outline: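 Concentration-response qHTS in NIH 3T3 mouse fibroblasts scores caspase-3/7 activation as rising luminescence after 16 hr compound exposure. Signals are scaled between DMSO-only and 100 uM tamoxifen.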

[6] = Cellular Toxicity (caspase-3) Renal Proximal Tubule (AID 667); conditions: renal proximal tubule cells, primary cells freshly taken from rat, solvent-only wells 0%, staurosporine 100%; at 91.7 µM (top of the series);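 note: cells exposed to compound for 16 hours at 37 °C before detection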
Outline: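 AC50 derived by standard Hill fit of concentration-response data, normalized between DMSO basal and 10 uM staurosporine as 100% stimulation. Cells: primary rat kidney proximal tubule, 16 h treatment at 37 °C.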

[7] = target: Cytochrome P450 3A4 (Homo sapiens) (UniProt P08684); assay: qHTS Assay for Inhibitors and Substrates of Cytochrome P450 3A4 (AID 884); conditions: recombinant CYP3A4, Luciferin-PPXE luminescence; at 57.1 µM (top of the series); note: % is set by controls: 0 for no effect and ±100 for the full control effect; nearly all actives have a fitted effect of over 50% in size
[8] = Cell Viability - LYMP2-001 (AID 921); conditions: LYMP2-001 lymphoblastoid cell viability; at 92.2 µM (top of the series);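 note: cells exposed to compound for 24 h at 37 °C; 0% = DMSO only and full inhibition = tetraoctylammonium bromide control wells; nearly all actives have a fitted effect of over 70% in size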
Outline: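 Steps: seed 2500 lymphoblastoid cells/well; 5 hr, 37 C; add compound; 24 hr, 37 C; CellTiter-Glo reagent, 30 min room temperature; read luminescence. Concentration-response modeled by Hill equation for AC50.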

[9] = MultiTox-Fluor Cytotoxicity Assay - LYMP1-001 - Dead Cells (AID 946); conditions: LYMP1-001 lymphoblastoid cells, dead-cell protease fluorescence; at 92.2 µM (top of the series);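 note: 0% = DMSO and 100% = tetraoctylammonium bromide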
From the text: NIH Chemical Genomics Center [NCGC]
NIH Molecular Libraries Screening Centers Network [MLSCN]
National Institutes of Environmental Health Sciences [NIEHS]
National Toxicology Program [NTP]
We have developed a 1536-well cell-based assay for quantitative high throughput screening (qHTS) against a number of cell lines to determine in vitro cytotoxicity of small molecules. This particular assay uses a human lymphoblastoid cell line (LYMP1-001) purchased from Coriell Institute for Medical Research.
NCGC Assay Protocol Summary:
The MultiTox-Fluor Cytotoxicity Assay (Promega) is a homogeneous method to simultaneously measure the relative number of live and dead cells in culture by detecting changes in cell membrane integrity. […] Viable cells are determined when the cell-permeant substrate (GF-AFC) enters the cell and is cleaved by protease from live cells resulting in liberated fluorophore. […] The dead cells are determined by using fluorogenic cell-impermeant peptide substrate (bis-AAF-R110) which cleaved by dead cell proteases leaking from damaged cell membrane.
Using the MultiTox-Fluor Cytotoxicity Assay, the relative number of dead cells was measured in the lymphoblastoid cell line with complete culture medium following compound treatment for 16 hours. […] AC50 values were determined from concentration-response data modeled with the standard Hill equation. […]

[10] = MultiTox-Fluor Cytotoxicity Assay - LYMP1-001 - Live Cells (AID 947); conditions: LYMP1-001 lymphoblastoid cells, live-cell protease fluorescence viability; at 92.2 µM (top of the series);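 note: 0% = DMSO only and full inhibition = tetraoctylammonium bromide control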

O=C(O)C1(Nc2ccccc2)CCN(Cc2ccccc2)CC1
inactive: activation [1] 4.81%

CCOP(=O)(Cl)Cl
inactive: caspase-3 activation [2] -0.0551% | caspase-3 activation [3] -0.558% | caspase-3 activation [4] 1.29% | caspase-3 activation [5] -2.46% | caspase-3 activation [6] 3.8% | activity change, negative = inhibition [7] -1.39% | activity change, negative = cytotoxic [8] -14.5% | cytotoxicity (dead cells) [9] 0.805% | activity change, negative = cytotoxicity [10] -3.22%

ClCCOP(OCCCl)OCCCl
inactive: caspase-3 activation [2] -0.131% | caspase-3 activation [3] -1.84% | caspase-3 activation [4] -0.293% | caspase-3 activation [5] 4.58% | caspase-3 activation [6] 9.6% | activity change, negative = inhibition [7] -0.59% | activity change, negative = cytotoxic [8] -8.14% | cytotoxicity (dead cells) [9] 2.81% | activity change, negative = cytotoxicity [10] -10.5%
